Experimental data taken from patent US20060241289A1.
Values joined by “and” are separate entries in the source; they are usually repeats but may differ in a detail not shown here. Identical values can stand only once.

Assays:
[1] = biological target: human TSH receptor on CHO cells (human) (UniProt P16473); test: cell-based or functional assay
[2] = biological target: hTSH receptor expressed on CHO cells (human) (UniProt P16473); test: cell-based or functional assay

mean pmol cyclic AMP/cell well; pTSH 0.5 ng/mL plus assay buffer (pmol/cell well) [1]: 3.91
pmol cyclic AMP/cell well; pTSH 0.5 ng/mL plus assay buffer (pmol/cell well) [1]: 4.02 and 2.75 and 4.96
x basal stimulation; pTSH 0.5 ng/mL plus assay buffer [1]: 11.5 x basal
x basal stimulation; pTSH 0.5 ng/mL plus assay buffer (separate experiment) [1]: 12.7 x basal
cyclic AMP (pmols per well); Experiment 1, Porcine TSH 0.1 ng/mL (pmols per well) [2]: 1.07
cyclic AMP (pmols per well); Experiment 2, Porcine TSH 0.05 ng/mL (pmols per well) [2]: 1.07
stimulation of cyclic AMP production in CHO cells transfected with the TSH receptor [2]: 0.1 ng/mL
Substance: porcine TSH (from UniProt P01219 25-120; P01224 21-132) (ligand)
